In patent US7745604B2, “Upstream control elements of the proopiomelanocortin gene and their use” (Oregon Health & Science University, priority 2001, dated 2010):

Tests used:
[1] = tested on: c-fos expression in the arcuate nucleus; test: c-fos expression in the lateral arcuate after IP injection, rat; assay type: in vivo; settings: single IP injection, n=3, P<0.0001
[2] = tested on: c-fos expression in the arcuate nucleus; test: c-fos expression in arcuate nucleus of Pomc-EGFP mice after IP injection; assay type: in vivo, mouse; settings: IP 5 μg/100 g, 2 hours, n=5, P<0.006
Description: Data were obtained from 5 mice in each group. For the Pomc-EGFP mice 5 anatomically matched arcuate nucleus sections (Franklin et al., The Mouse Brain in Stereotaxic Coordinates (Academic Press, San Diego, 1997) were counted from each animal, and images acquired using a Leica TSC confocal microscope (Grove et al., Neuroscience 100:731-40, 2000).

[3] = tested on: POMC neurons; test: Whole cell recordings of membrane potential of EGFP-labeled POMC neurons in ARC slices; assay type: cell-based, mouse; settings: PYY3-36 (10 nM per FIG. 6a), n=22, P<0.0003

## PYY3-36
[1]
  number of cells positive for c-fos: 168±2
[2]
  proportion of POMC neurons that express c-fos: 20.4±2.9%
[3]
  depolarization of POMC neurons: 10.3±2.1 mV
